E-sel inducer = E-selectin induction on HUVECs; P16581; HUVEC E-selectin immunofluorescence imaging; normalized: neutral wells 0, TNF-alpha wells 100; activation, % at 7.58 µM; 0.37% of 260,000 active; AID 686992;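 active means mean E-selectin-positive cell signal at least 10% of the positive control, reached in at least 60% of replicates, without over 20% cell loss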
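Assay system: HUVEC primary endothelial cells. Input: 3,000 HUVEC seeded per well. Doses: one compound dose added by pin transfer. Read-out basis: % PE-positive cells. Benchmarks: TNF-alpha high, DMSO low. Detection: immunofluorescence imaging. Buffer or medium: EGM-2, gelatin.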
SIRT5 inh = inhibitors of human sirtuin-5 desuccinylase | inhibition, % at 15 µM | Purified SirT5, succinyl-peptide AMC, trypsin-coupled fluorescence | 1.1% of 330,000 active | AID 652115; in the data active means inhibition above about 15%
Yeast UUG start = alters start codon recognition fidelity in yeast; S. cerevisiae UUG-firefly luciferase reporter, luminescence/redox ratio; activity score, % at 18.7 µM; actives 0.13% (n = 350,000); AID 602363;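 active = replicate mean at a twofold rise or more, about +100% in these data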;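 also: firefly luciferase made from a UUG start codon reports start codon fidelity; reporter light over untreated wells divided by growth signal over untreated wells; some hits fall short of that in this replicate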
AF4-AF9 inh = blocks AF4 peptide binding to human AF9; 0.47% of 350,000 active; P42568; AlphaScreen, biotin-AF4 peptide binding to FLAG-AF9; inhibition, % at 10 µM;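 active means every replicate reaching a set inhibition limit, whatever the replicate mean, cut at about 25% in these data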;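 further: 0% = plate neutral control median and 100% = total signal loss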
RAD54 branch = blocks human RAD54 Holliday junction branch migration; Q92698; FAM/BHQ fluorescence; inhibition, % at 10.4 µM; 0.14% of 360,000 active;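 active means mean normalized replicate activity at least 40 and at least half of replicates scoring 40 or more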;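 further: 0% = median of neutral control wells and 100% = median of positive control wells; inhibitors cause a drop in the FAM fluorescence signal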
RAD52 anneal inh = inhibitors of human RAD52 DNA annealing; P43351; recombinant RAD52 DNA annealing, FRET fluorescence; inhibition, % at 18.7 µM; 0.46% of 360,000 active;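 active means every replicate showing at least 50% inhibition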
* hit, by the source's call; / = no result given. An excerpt weighted towards active compounds, which were near 1.8% of everything screened.

1. C[C@@H]1CN([C@H](C)CO)C(=O)c2c(c3ccccc3n2C)-c2ccccc2CO[C@@H]1CN(C)C(=O)c1ccccc1
2. COc1cc2sc3cc(NCCCN4CCOCC4)ccc3c(=O)c2cc1OC
3. O=C(O)CCNc1ccc(NCCC(=O)O)c2c1C(=O)c1ccccc1C2=O
4. O=[N+]([O-])c1ccc(CNc2ccc(Cl)cc2)s1
5. COc1cccc(-c2ocnc2C(=O)Nc2ccc(N3CCOCC3)cc2N2CCOCC2)c1
6. COc1ccc(-c2ocnc2C(=O)Nc2ccccc2N2CCCCC2)cc1
Compound	1	2	3	4	5	6
E-sel inducer	0	0	/	0	0	/
SIRT5 inh	-4	/	17*	1	-3	/
Yeast UUG start	2	8	/	-21	-7	0
AF4-AF9 inh	-2	3	32*	30*	35*	/
RAD54 branch	-14	22	/	-3	11	6
RAD52 anneal inh	6	81*	-111	-14	-13	/

7. CCC(=O)N1CC2(C1)[C@H](c1ccc(-c3ccc(F)cc3)cc1)[C@H](CO)N2S(C)(=O)=O
8. CCC(CN(C)C)Oc1cc(NCc2ccccc2)c2ncn(C(C)C)c2c1 (stereo not given)
9. CN(C)CCN1CCN(C2CN(C3CCCCC3)S(=O)(=O)C2)CC1 (stereo not given)
10. CCCCCCN1CCN(C2CN(C3CCCCC3)S(=O)(=O)C2)CC1 (stereo not given)
11. CC(C)c1ccccc1OCC(=O)Nc1ccc2[nH]ncc2c1
12. COc1ccccc1C(=O)Nc1ccc2[nH]ncc2c1
Compound	7	8	9	10	11	12
E-sel inducer	0	/	/	0	/	/
SIRT5 inh	-2	/	-1	39*	18*	-1
Yeast UUG start	/	-13	10	0	-14	-4
AF4-AF9 inh	2	/	0	-7	-8	-3
RAD54 branch	/	70*	-4	-4	3	-8
RAD52 anneal inh	-15	/	-15	3	-2	-7

13. C[C@@H]1CN([C@@H](C)CO)C(=O)c2cc(NS(=O)(=O)c3ccccc3)ccc2O[C@@H]1CN(C)Cc1ccc(Oc2ccccc2)cc1
14. COc1ccc(S(=O)(=O)Nc2ccc3c(c2)C(=O)N([C@H](C)CO)C[C@H](C)[C@H](CN(C)Cc2ccc(Oc4ccccc4)cc2)O3)cc1
15. C[C@H]1CN([C@@H](C)CO)C(=O)c2cc(NS(=O)(=O)c3ccccc3)ccc2O[C@@H]1CN(C)Cc1ccc(Oc2ccccc2)cc1
16. COc1ccc(CN(C)C[C@H]2Oc3ccc(NS(=O)(=O)c4ccccc4)cc3C(=O)N([C@H](C)CO)C[C@H]2C)cc1
17. COc1ccc(S(=O)(=O)Nc2ccc3c(c2)C(=O)N([C@@H](C)CO)C[C@@H](C)[C@@H](CN(C)Cc2ccc(Oc4ccccc4)cc2)O3)cc1
18. COc1ccc(S(=O)(=O)Nc2ccc3c(c2)C(=O)N([C@@H](C)CO)C[C@H](C)[C@@H](CN(C)Cc2ccc(Cl)c(Cl)c2)O3)cc1
Compound	13	14	15	16	17	18
E-sel inducer	0	0	0	2	1	80*
SIRT5 inh	20*	31*	11	-5	35*	1
Yeast UUG start	6	13	-1	7	15	10
AF4-AF9 inh	5	-1	4	-4	1	-1
RAD54 branch	-4	-2	-1	5	-4	3
RAD52 anneal inh	-12	35	10	2	45	-1

19. CO[C@H]1CN(C)C(=O)c2cc(NC(=O)Nc3cccc(Cl)c3)ccc2OC[C@@H](C)N(C(=O)Nc2c(C)noc2C)C[C@@H]1C
20. COc1ccc(S(=O)(=O)Nc2ccc3c(c2)C(=O)N([C@@H](C)CO)C[C@H](C)[C@@H](CN(C)Cc2ccc(Oc4ccccc4)cc2)O3)cc1
21. COc1cccc(/C=C(/C#N)c2nc3ccccc3[nH]2)c1OC(C)C(=O)O (stereo not given)
22. COc1cccc(/C=C(\C#N)c2nc3ccccc3[nH]2)c1OCC(=O)O
23. CCOC(=O)c1c(/N=C/C2C(=O)CCCC2=O)sc2c1CCCC2
24. CCOC(=O)c1c(CC(C)C)csc1/N=C/C1C(=O)CCCC1=O
Compound	19	20	21	22	23	24
E-sel inducer	0	0	0	/	/	33*
SIRT5 inh	/	25*	1	102*	-3	-5
Yeast UUG start	/	17	/	-9	/	/
AF4-AF9 inh	/	3	-3	-2	2	5
RAD54 branch	/	1	/	3	/	/
RAD52 anneal inh	/	35	-30	-55	-8	-104

25. COc1ccc(-c2csc(N(CCCN(C)C)C(=O)c3ccccc3C)n2)cc1
26. CN(C)CCCN(C(=O)c1cccs1)c1nc(-c2ccccc2)cs1
27. O=[N+]([O-])c1ccc2c(c1)CCO[C@@]21O[C@H](CCO)C[C@H](O)[C@H]1O
28. O=[N+]([O-])c1ccc2c(c1)CO[C@@]21O[C@H](CCO)C[C@H](O)[C@H]1O
29. CO[C@@H]1CC[C@@H]2CCOc3c(C#N)cccc3C(=O)N(C)C[C@@H](OC)[C@@H](C)C(=O)N(C)C[C@@H]1O2
30. CO[C@@H]1CC[C@@H]2CCN(C)C(=O)C[C@H](c3ccccc3)CN(C)C(=O)c3cccc(C#N)c3OC[C@@H]1O2
Compound	25	26	27	28	29	30
E-sel inducer	0	/	/	65*	0	0
SIRT5 inh	3	/	-5	2	35*	25*
Yeast UUG start	-9	-12	/	13	/	/
AF4-AF9 inh	31*	/	-3	-2	1	3
RAD54 branch	11	6	/	3	4	-6
RAD52 anneal inh	48	/	-9	-21	-6	-3

31. CO[C@@H]1CC[C@@H]2CCN(C)C(=O)[C@@H](C)[C@H](OC)CN(C)C(=O)c3cc(C#N)ccc3OC[C@@H]1O2
32. C[C@H]1CN([C@@H](C)CO)C(=O)c2cc(NC(=O)Nc3cccc4ccccc34)ccc2O[C@H]1CN(C)C(=O)Nc1ccc(C(F)(F)F)cc1
33. Cc1cccc(S(=O)(=O)N2CCCCN3[C@H](C2)[C@H](c2ccc(C#C[C@H](C)O)cc2)[C@@H]3CO)c1
34. COCCNC(=O)C[C@H]1C[C@@H]2c3cc(NC(=O)CC4CC4)ccc3O[C@@H]2[C@@H](CO)O1
35. COc1ccccc1C(=O)N1C[C@@H]2[C@H](c3ccccc31)[C@@H](CO)N2CC1CCOCC1
36. O=C(OCC(=O)N1CCCC1)c1cc(Br)ccc1Cl
Compound	31	32	33	34	35	36
E-sel inducer	0	-1	0	0	1	0
SIRT5 inh	19*	0	0	0	/	18*
Yeast UUG start	/	-17	0	-15	-8	/
AF4-AF9 inh	0	2	-2	-4	/	0
RAD54 branch	-6	-1	0	-3	4	/
RAD52 anneal inh	3	-9	-9	-6	/	0

37. C[C@@H]1CN([C@H](C)CO)C(=O)c2cc(NC(=O)c3ccncc3)ccc2O[C@@H]1CN(C)Cc1ccncc1
38. Cc1nc2ccc3nc(NC(=O)C4COc5ccccc5O4)sc3c2s1 (stereo not given)
39. O=C(Nc1nc(-c2ccc3c(c2)OCO3)cs1)C1COc2ccccc2O1 (stereo not given)
40. CSc1nc2ccc3nc(NC(=O)C4COc5ccccc5O4)sc3c2s1 (stereo not given)
41. Cc1ccc(CNC(=O)Nc2ccc(F)cc2)n1C
42. CC1=NCCN1CCNC(=O)Nc1ccc(F)cc1
43. CC1=NCCN1CCNC(=O)Nc1cc(C)cc(C)c1
Compound	37	38	39	40	41	42	43
E-sel inducer	0	1	/	2	/	/	/
SIRT5 inh	11	-5	16*	-1	1	17*	21*
Yeast UUG start	2	-5	-18	-18	-3	-19	-5
AF4-AF9 inh	-5	48*	-13	-3	-3	3	1
RAD54 branch	7	0	2	-7	-8	4	0
RAD52 anneal inh	8	-17	-9	-5	-17	-8	-15

Another view of 3 compounds above:
Order of results: E-sel inducer | SIRT5 inh | Yeast UUG start | AF4-AF9 inh | RAD54 branch | RAD52 anneal inh
38) Cc1nc2ccc3nc(NC(=O)C4COc5ccccc5O4)sc3c2s1 (stereo not given)
  1 | -5 | -5 | 48* | 0 | -17
39) O=C(Nc1nc(-c2ccc3c(c2)OCO3)cs1)C1COc2ccccc2O1 (stereo not given)
  / | 16* | -18 | -13 | 2 | -9
40) CSc1nc2ccc3nc(NC(=O)C4COc5ccccc5O4)sc3c2s1 (stereo not given)
  2 | -1 | -18 | -3 | -7 | -5

Screens from PubChem BioAssay.
